Results taken from PMC9698607, “Dual Functionalized Liposomes for Selective Delivery of Poorly Soluble Drugs to Inflamed Brain Regions” (Pharmaceutics, 2022).

Test system: hCMEC/D3 cells

TRITC-dextran
EP to TRITC-dextran: 7.32 ± 0.95 × 10^−5 cm/min
